# From US10875860B2, “Azaindenoisoquinoline compounds and uses thereof” (Purdue Research Foundation, priority 2016, dated 2020)
# Biological target: T1, recombinant human TDP2 (Homo sapiens, UniProt O95551)
# T1 sequence (O95551 1-362): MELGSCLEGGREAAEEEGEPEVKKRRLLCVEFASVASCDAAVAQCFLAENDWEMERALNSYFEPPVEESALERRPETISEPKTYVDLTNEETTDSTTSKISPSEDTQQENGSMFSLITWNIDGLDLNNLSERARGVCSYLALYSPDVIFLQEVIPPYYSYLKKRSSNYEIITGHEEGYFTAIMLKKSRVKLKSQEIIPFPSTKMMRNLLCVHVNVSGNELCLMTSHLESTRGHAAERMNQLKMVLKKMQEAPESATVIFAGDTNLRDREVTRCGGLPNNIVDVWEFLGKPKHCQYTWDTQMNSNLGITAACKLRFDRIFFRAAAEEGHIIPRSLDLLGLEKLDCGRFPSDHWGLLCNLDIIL
# Assay: Recombinant Tdp2 assay
# Assay type: biochemical
structure (smiles),measurement,value
"COc1cnc2c(c1)C(=O)c1c-2n(CCCN2CCCC2)c(=O)c2cc(Cl)ccc12 [Compound 16i, 3-Chloro-9-methoxy-6-(3-(pyrrolidin-1-yl)propyl)-5H-pyrido[3′,2′:4,5]cyclopenta[1,2-c]isoquinoline-5,11(6H)-dione]",pIC50,< 3.95

# pIC50: −log10 of the molar value.
